The list shows a part of the results, in another mix than the full data. Some salts or complexes appear as unconnected parts, following the source record. Calls of active or inactive are those of the source.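 The calls were made as follows: active = inhibition of the ligand-induced calcium signal above about 50% at the single tested concentration (limit read from the data); inactive = the rest.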

This experiment in a line: antagonists of CRF-BP/CRF-R2 complex, primary screen, cell-based, HEK293, calcium dye fluorescence, uHTS (AID 588475). The settings on record: CRF-induced calcium fluorescence, at 11.8 µM, stronger effect = higher value.
As usually defined, the inhibition is the change of the read-out against control, counted positive when it falls. Regarding `Cc1cc(C)cc(OP(C)(=O)Nc2cccc(C(F)(F)F)c2)c1` (stereo not given), the inhibition is inactive: -35.2%. The same measure for `O=C1C(O)=C([N+](=O)[O-])C(=O)C(O)=C1[N+](=O)[O-]`: inactive: 2.42%; for `COc1ccc(OP(C)(=O)Nc2ccccc2Br)cc1` (stereo not given): inactive: -26.3%. The same measure for `COc1ccccc1OP(C)(=O)Nc1ccc(C)c(C)c1` (stereo not given): inactive: -4.81%; for `CP(=O)(Nc1ccc(Cl)cc1Cl)Oc1ccccc1` (stereo not given): inactive: -12%; for `CCCCCCCCCCCCCCCC1C[N+](C)(C)CCOP(C)(=O)O1` (stereo not given): inactive: -9.89%. The same measure for `CP(=O)(OCCOc1ccccc1)OCCOc1ccccc1`: inactive: -9.61%; for `COc1ccccc1OP(C)(=O)Nc1ccc(Br)cc1` (stereo not given): inactive: -10.6%. As for `CN(C)CCOC(=O)C(O)(c1ccccc1)C1CCCC1` (stereo not given), the inhibition was inactive: 8.26%. With `COc1ccc(OP(C)(=O)Nc2ccccn2)cc1` (stereo not given) the figure was inactive: 15.5%; with `Cc1c(NP(C)(=O)Oc2ccc(C(C)C)cc2)c(=O)n(-c2ccccc2)n1C` (stereo not given), inactive: 0.17%; with `O=[N+]([O-])c1cc([N+](=O)[O-])c(Nc2ccccn2)c([N+](=O)[O-])c1`, inactive: 3.62%. As for `CCc1ccc(OP(C)(=O)O)cc1`, the inhibition was inactive: -2.39%. Regarding `COc1ccccc1OP(C)(=O)Nc1ccc(C)cc1C` (stereo not given), the inhibition is inactive: -13.2%.

On to `CP(=O)(Nc1ccccn1)Oc1ccccc1` (stereo not given), for which the inhibition is inactive: -0.84%.

With `COc1ccc(OP(C)(=O)Nc2ccc(Br)cc2)cc1` (stereo not given), the inhibition is inactive: -43.4%. With `CCN(CC)CC(O)COC(=O)C(O)(c1ccccc1)C1CCCCC1` (stereo not given) the figure was inactive: -22.9%; with `CCc1ccc(OP(C)(=O)Nc2cccnc2)cc1` (stereo not given), inactive: 1.91%.

For `CP(=O)(Oc1ccccc1)N1CCOC1=O` (stereo not given), the inhibition is inactive: -4.06%.

As to `O=C(OCCCN1CCCC1)C(O)(c1ccccc1)C1CCCCC1` (stereo not given), the inhibition was inactive: -4.34%. With `COc1ccccc1OP(C)(=O)Nc1c(C)n(C)n(-c2ccccc2)c1=O` (stereo not given) the figure was inactive: 23.6%. `CP(=O)(Nc1ccc(Cl)cc1)Oc1ccc(F)cc1` (stereo not given): the inhibition is inactive: -9.69%.

Regarding `COc1ccccc1OP(C)(=O)Nc1ccccc1Br` (stereo not given), the inhibition is inactive: -1.33%. The same measure for `CC(C)(C)c1ccc(OP(C)(=O)O)cc1`: inactive: 3.41%; for `CN(C)C(=O)c1c([N+](=O)[O-])cc([N+](=O)[O-])cc1[N+](=O)[O-]`: inactive: 10.6%; for `Nc1ccc2c(ccc3cccnc32)n1.O=[N+]([O-])c1cc([N+](=O)[O-])c(O)c([N+](=O)[O-])c1`: inactive: 8.87%. For `CP(=O)(OC12CC3CC(CC(C3)C1)C2)OC12CC3CC(CC(C3)C1)C2`, the inhibition was inactive: -68.7%. In the case of `CCOC(=O)c1ccc(NP(C)(=O)Oc2ccc(Cl)cc2)cc1` (stereo not given), the inhibition is inactive: -21.9%. The same measure for `COc1ccc(OP(C)(=O)Nc2cccc(Br)c2)cc1` (stereo not given): inactive: -19.9%; for `COc1ccc(NP(C)(=O)Oc2ccccc2OC)cc1` (stereo not given): inactive: -82.2%.

With `CN(C)CCOC(=O)C(O)(c1ccccc1)C1CCCCC1` (stereo not given), the inhibition is inactive: 2.55%. The same measure for `Cc1cc(-c2cccc3ccccc23)c(C)cn1.O=[N+]([O-])c1cc([N+](=O)[O-])c(O)c([N+](=O)[O-])c1`: inactive: 27.5%; for `O=[N+]([O-])c1cc([N+](=O)[O-])c(NCC2CCS(=O)(=O)C2)c([N+](=O)[O-])c1` (stereo not given): inactive: 6.09%.

Regarding `O=[N+]([O-])c1ccc(OP2(=O)COCCO2)cc1` (stereo not given), the inhibition was inactive: -12.2%. The same measure for `Cc1c(C(c2ccc3c(c2)OCO3)c2c(C)n(C)n(-c3ccccc3)c2=O)c(=O)n(-c2ccccc2)n1C.O=[N+]([O-])c1cc([N+](=O)[O-])c(O)c([N+](=O)[O-])c1`: inactive: -2.68%; for `CP(=O)(Nc1ccc(SC(F)(F)F)cc1)Oc1ccc(F)cc1` (stereo not given): inactive: -25%. With `CCOP(C)(=S)SCC(=O)NC(C)(CC)C(=O)O` (stereo not given) the figure was inactive: 1.36%; with `CP(=O)(Nc1ccc2c(c1)OCCO2)Oc1ccccc1` (stereo not given), inactive: -8.87%. As to `Cc1ccccc1NP(C)(=O)Nc1ccccc1C`, the inhibition is inactive: 10.2%. As for `O=[N+]([O-])c1cc([N+](=O)[O-])c(Nc2ccc(Cl)cc2)c([N+](=O)[O-])c1`, the inhibition was active: 67.3%. With `CC(C)c1ccc(OP(C)(=O)Nc2ccc(SC(F)(F)F)cc2)cc1` (stereo not given) the figure was inactive: -37.9%. With `CP(=O)(Nc1ccccc1F)Oc1ccccc1` (stereo not given) the figure was inactive: 2.52%; with `O=C(OCCN1CCN(CCOCc2ccccc2)CC1)C(O)(c1ccccc1)c1ccccc1`, inactive: 16.9%; with `O=C(OC1CN2CCC1CC2)c1ccc([N+](=O)[O-])cc1` (stereo not given), inactive: 17.6%. For `COc1ccc2c(c1O)-c1c(O)c(OC)cc3c1[C@H](C2)[N+](C)(C)CC3.O=[N+]([O-])c1cc([N+](=O)[O-])c([O-])c([N+](=O)[O-])c1[O-]`, the inhibition was inactive: 2.88%. With `COc1ccc(OP(C)(=O)Nc2ccc(SC(F)(F)F)cc2)cc1` (stereo not given) the figure was inactive: -20.1%; with `CCOC(=O)c1ccc(NP(C)(=O)Oc2ccc(F)cc2)cc1` (stereo not given), inactive: 8.7%. The same measure for `CCN(CC)CCCOC(=O)C(O)(c1ccccc1)C1CCCCC1` (stereo not given): inactive: 0.42%; for `Cc1c([N+](=O)[O-])cc([N+](=O)[O-])c(Br)c1[N+](=O)[O-]`: inactive: 12.3%. With `O=[N+]([O-])c1cc([N+](=O)[O-])c(OC2CCCCC2O)c([N+](=O)[O-])c1` (stereo not given) the figure was inactive: -3.01%. Turning to `CCCCCOc1ccc(NP(C)(=O)Oc2ccc(Cl)cc2Cl)cc1` (stereo not given), the inhibition is inactive: -32.2%.

For the molecule `CP(=O)(Nc1ccccc1)Oc1ccc(F)cc1` (stereo not given), the inhibition was inactive: -0.76%. Turning to `O=C(O)c1cccc(Nc2c([N+](=O)[O-])cc([N+](=O)[O-])cc2[N+](=O)[O-])c1`, the inhibition was inactive: 1.13%. With `CC1=NCCc2c1[nH]c1ccccc21.O=[N+]([O-])c1cc([N+](=O)[O-])c(O)c([N+](=O)[O-])c1` the figure was inactive: 2.4%. With `COc1ccccc1OP(C)(=O)Nc1cccc(Br)c1` (stereo not given) the figure was inactive: -16.7%; with `Cc1cc(C)cc(OP(C)(=O)Nc2ccc(C)cc2C)c1` (stereo not given), inactive: -20.6%; with `CCOC(=O)c1ccc(NP(C)(=O)Oc2cc(C)cc(C)c2)cc1` (stereo not given), inactive: -28.4%. In the case of `Cc1cc(C)cc(OP(C)(=O)Nc2ccccn2)c1` (stereo not given), the inhibition was inactive: -18.1%. With `CP(=O)(Nc1cccc(Br)c1)Oc1ccccc1` (stereo not given) the figure was inactive: -15.6%; with `Cc1ccc(C)c(NP(C)(=O)Oc2ccccc2)c1` (stereo not given), inactive: 1.52%. As to `O=[N+]([O-])c1cc([N+](=O)[O-])c(-n2nnc3ccccc32)c([N+](=O)[O-])c1`, the inhibition was inactive: 12.5%. The same measure for `O=[N+]([O-])c1cc([N+](=O)[O-])c(-c2cnn(-c3ccccc3)c2)c([N+](=O)[O-])c1`: inactive: 10.1%; for `Cc1nc2ccc3ccccc3c2s1.O=[N+]([O-])c1cc([N+](=O)[O-])c(O)c([N+](=O)[O-])c1`: inactive: 25.7%; for `CCOC(=O)C(CC)C1=NC(C)(C)Cc2ccccc21.O=[N+]([O-])c1cc([N+](=O)[O-])c(O)c([N+](=O)[O-])c1` (stereo not given): inactive: 8.85%. The same measure for `CC1=C2N=C(C=C3N=C(C(C)=C4[N-][C@@](C)([C@@H]5N=C1[C@](C)(CCC(=O)NC[C@@H](C)OP(=O)([O-])O[C@H]1[C@@H](O)[C@@H](n6cnc7cc(C)c(C)cc76)O[C@@H]1CO)[C@H]5CC(N)=O)[C@@](C)(CC(N)=O)[C@@H]4CCC(N)=O)[C@@](C)(CC(N)=O)[C@@H]3CCC(N)=O)C(C)(C)[C@@H]2CCC(N)=O.[C-]#N.[Co+3]`: inactive: 15.5%. With `O=[N+]([O-])c1cc([N+](=O)[O-])c(Nc2nnnn2CCO)c([N+](=O)[O-])c1` the figure was inactive: 14.6%; with `CN1CCCCC1COC(=O)C1(O)c2ccccc2CCc2ccccc21` (stereo not given), inactive: 4.07%. For `COc1ccccc1OP(C)(=O)Nc1c(C)cccc1C` (stereo not given), the inhibition was inactive: 0.9%. The same measure for `CCCOc1ccc(NP(C)(=O)Oc2ccc(Cl)cc2)cc1` (stereo not given): inactive: -11.5%. The same measure for `CP(=O)(Nc1ccc(SC(F)(F)F)cc1)Oc1ccccc1` (stereo not given): inactive: -13.5%; for `CP(=S)(Nn1cnnc1)Oc1ccccc1` (stereo not given): inactive: 2.07%; for `COc1ccccc1OP(C)(=O)Nc1ccccc1` (stereo not given): inactive: 3.58%. The same measure for `CP(=O)(Nc1ccccc1Br)Oc1ccccc1` (stereo not given): inactive: -17.3%; for `CP(=O)(Oc1ccccc1)OC(c1ccccc1)C(F)(F)F` (stereo not given): inactive: 4.72%. As for `CP(=O)(Nc1ccc(SC(F)(F)F)cc1)Oc1ccc(Cl)cc1` (stereo not given), the inhibition is inactive: -10%. With `Cc1ccc(Nc2c([N+](=O)[O-])cc([N+](=O)[O-])cc2[N+](=O)[O-])cc1` the figure was inactive: 39.7%. With `Cc1cccc(C)c1OP(C)(=O)Nc1ccc(SC(F)(F)F)cc1` (stereo not given) the figure was inactive: -40.2%; with `Cc1cc(C)cc(OP(C)(=O)Nc2ccc(SC(F)(F)F)cc2)c1` (stereo not given), inactive: -56.9%. The same measure for `CP(=O)(NC(=O)Nc1ccccc1)Oc1ccccc1` (stereo not given): inactive: 7.63%. Consider `CCc1ccc(OP(C)(=O)N2CCN(c3ccc([N+](=O)[O-])cc3)CC2)cc1` (stereo not given), for which the inhibition is inactive: -4.46%.

For the molecule `CCOP(C)(=S)SCC(=O)NC(C)C(=O)O` (stereo not given), the inhibition was inactive: -10.6%.

For the molecule `O=[N+]([O-])c1cc([N+](=O)[O-])c(O)c([N+](=O)[O-])c1.c1ccc(Oc2ccncc2)cc1`, the inhibition was inactive: 25.4%. The same measure for `CCOC(=O)c1ccc(NP(C)(=O)Oc2ccc(OC)cc2)cc1` (stereo not given): inactive: -12.1%; for `CP(=O)(Nc1ccccn1)Oc1ccc(Cl)cc1` (stereo not given): inactive: 17.2%; for `CCN(CC)CCCOC(=O)C(O)(c1ccccc1)c1ccccc1`: inactive: -17.4%.

On to `O=[N+]([O-])c1cc([N+](=O)[O-])c(Nc2cccnc2)c([N+](=O)[O-])c1`, for which the inhibition is active: 59.7%. The same measure for `Cc1cccc(C)c1OP(C)(N)=O` (stereo not given): inactive: 2.82%.

With `CC(C)(C)c1ccc(OP(C)(=O)Nc2ccc(SC(F)(F)F)cc2)cc1` (stereo not given), the inhibition is inactive: -73.4%. With `O=[N+]([O-])c1ccc2c(c1)C=Nc1ccccc1O2` the figure was inactive: 18.7%; with `CCOC(=O)c1ccc(NP(C)(=O)Oc2ccccc2)cc1` (stereo not given), inactive: -3.17%; with `Cc1ccc(NP(C)(=O)Oc2ccccc2)c(C)c1` (stereo not given), inactive: -4.11%. Take `COc1ccccc1OP(C)(=O)Nc1ccc(C)cc1` (stereo not given): the inhibition was inactive: -0.61%.

Regarding `COc1ccc(OP(C)(=O)Nc2cccc(F)c2)cc1` (stereo not given), the inhibition was inactive: 18%.

Take `COc1ccccc1OP(C)(=O)Nc1cc(Cl)ccc1C` (stereo not given): the inhibition was inactive: -4.73%. With `Cc1cc(C)cc(OP(C)(N)=O)c1` (stereo not given) the figure was inactive: 13.7%.

For the origin of these results see PubChem BioAssay AID588475 (Sanford-Burnham Center for Chemical Genomics, 2011).
